In the library only some 1.9% were active in any assay of this set; here they are far more common.
ARNT-TACC3 inh: disruptors of ARNT/TACC3 protein interaction, primary screen, biochemical, AlphaScreen, single concentration; Transforming acidic coiled-coil-containing protein 3 (Homo sapiens), Q9Y6A5; 390,000 compounds, 0.66% hits; AlphaScreen His-ARNT PAS-B/GST-TACC3 binding, luminescence; TACC3 fragment carries E629A point mutation; inhibition, % at 9.99 µM;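 active = mean inhibition of replicates at least 50% and at least half of replicates each reaching 50%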;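 also: 0% = complete ARNT plus TACC3 wells and 100% = ARNT alone without TACC3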
Yeast UUG start: modulators of start codon recognition fidelity in yeast; S. cerevisiae UUG-firefly luciferase reporter, luminescence/redox ratio; activity score, % at 18.7 µM; hit rate 0.13% among 350,000; AID 602363;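 active = replicate mean at a twofold rise or more, about +100% in these data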;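 note: firefly luciferase made from a UUG start codon reports start codon fidelity; reporter light over untreated wells divided by growth signal over untreated wells; some hits fall short of that in this replicate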
FGF22 binding: binders of human FGF22 protein, primary screen, FGF22 synaptogenesis inhibitor project, biophysical, thermal shift, single point | Fibroblast growth factor 22 (Homo sapiens), Q9HCT0 | 340,000 compounds, 1.5% hits | activity (Tm shift, normalised), % at 9.99 µM | AID 651658, 2012 | recombinant FGF22 thermal shift, SYPRO orange fluorescence; percent of sucrose octasulfate shift, DMSO zero;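 active = mean Tm shift, scaled 0 neutral to 100 positive control, at about 1.3% or above, every replicate too, limit read from the data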
ERp5 inh: inhibitors of ERp5-driven insulin aggregation, primary screen, biochemical, turbidity, absorbance 650 nm, single point; Protein disulfide-isomerase A6 (Homo sapiens), Q15084; 350,000 compounds, 0.05% hits; AID 651711, 2012; 90 min; inhibition, % at 9.99 µM;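 active = mean replicate inhibition above about 25%, with every replicate also reaching it, limit read from the data, passing the limit was not always enough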
PglD inh: C. jejuni PglD acetyltransferase inhibitors, primary screen, biochemical, DTNB colorimetric, single point; inhibition, % at 12.5 µM; AID 602405, 2012; purified PglD enzyme, DTNB colorimetric CoA detection; 360,000 compounds, 0.098% hits; UDP-N-acetylbacillosamine N-acetyltransferase PglD (Campylobacter jejuni); in the data active = inhibition above about 16%, passing the limit was not always enough
PDI inh: inhibitors of human PDI, primary screen, biochemical, turbidity, single point, plate reader. Protein disulfide-isomerase (Homo sapiens), P07237. 350,000 compounds, 0.052% hits. inhibition, % at 10 µM. PDI insulin aggregation turbidity, A650, 90 min;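 active = mean inhibition across replicates of 30% or more, whatever share of single replicates reach that level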
The depositor's hits bear a star; . = no result.

| No. | Molecule | Yeast UUG start | PDI inh | PglD inh |
| --- | --- | --- | --- | --- |
| 1 | CO[C@@H]1CN(C)C(=O)c2cc(NC(=O)C3CCC3)ccc2OC[C@@H](C)N(C(=O)NC(C)C)C[C@@H]1C | 4 | . | 2 |
| 2 | O=C1NC2(CCCCC2)C(=O)N1Cc1cccc(C(F)(F)F)c1 | -10 | 1 | 4 |
| 3 | CCC1=NN2C(=N)/C(=C\c3cccn3-c3ccc(Cl)cc3)C(=O)N=C2S1 | . | -5 | . |
| 4 | O=C(NCC[C@H]1CC[C@@H](NC(=O)C2CCC2)[C@@H](CO)O1)Nc1ccc(Cl)cc1 | 2 | . | -3 |
| 5 | CCc1ccc(NC(=O)CO/N=C(\C)c2cc3ccccc3o2)cc1 | -8 | -1 | . |
| 6 | Cc1ccc(NC(=O)N2CCCC2C(=O)NCC2CCCO2)cc1 (centres undefined) | -12 | -1 | 0 |
| 7 | O=C(Nc1ccc(Br)cc1)c1cccc(-n2cnnn2)c1 | -1 | 8 | -1 |
| 8 | O=C(Nc1nc(-c2ccccn2)cs1)c1cccc(-n2cnnn2)c1 | -17 | 1 | 0 |
| 9 | O=C(c1cccnc1)N1CCCCN2[C@H](CO)[C@H](c3ccc(C#Cc4cccnc4)cc3)[C@@H]2C1 | -8 | . | 1 |
| 10 | C[C@@H]1CCCCO[C@@H](CN(C)CC2CC2)[C@H](C)CN([C@@H](C)CO)C(=O)c2cc(NC(=O)Nc3ccc(F)cc3)ccc2O1 | 20 | . | 1 |
| 11 | Cc1ccc(S(=O)(=O)CCSC(=N)N)cc1 | -2 | 9 | -2 |
| 12 | Cc1ccc(S(=O)(=O)CC(N)=O)cc1 | -19 | 0 | -5 |

| No. | ARNT-TACC3 inh | FGF22 binding | ERp5 inh |
| --- | --- | --- | --- |
| 1 | -10 | 0 | -1 |
| 2 | 0 | 43* | -2 |
| 3 | 1 | 47* | 0 |
| 4 | -4 | 0 | 1 |
| 5 | -4 | 44* | -4 |
| 6 | -3 | 43* | -1 |
| 7 | 2 | 0 | -1 |
| 8 | 70* | 0 | 1 |
| 9 | -9 | 0 | . |
| 10 | 5 | 0 | 0 |
| 11 | . | 44* | -3 |
| 12 | -3 | 0 | -3 |

Next section.
| No. | Molecule | Yeast UUG start | PDI inh | PglD inh |
| --- | --- | --- | --- | --- |
| 13 | C[n+]1ccccc1C1CCCC/C1=N\NC(N)=S (centres undefined) | . | -1 | . |
| 14 | CC1CCCC/C1=N\NC(=S)NCCc1ccccc1 (centres undefined) | . | 4 | . |
| 15 | C[C@@H]1CN([C@H](C)CO)S(=O)(=O)c2ccc(C3=CCCCC3)cc2O[C@@H]1CN(C)C(=O)C1CCOCC1 | 13 | . | 3 |
| 16 | Cn1c(SCc2nc3ccccc3c(=O)[nH]2)nc2ccccc21 | . | 1 | . |
| 17 | O=c1[nH]c(CSc2nnnn2-c2ccccc2)nc2ccccc12 | . | 5 | . |
| 18 | COc1cccc(-c2ccc([C@@H]3[C@@H](CO)N4C(=O)CN(C(=O)C5CCC5)C[C@@H]34)cc2)c1 | . | . | . |
| 19 | Nc1c(Cl)ncnc1N/N=C/c1ccc2ccccc2n1 | . | -4 | . |
| 20 | COc1cc2c(cc1OC)-c1cc(Nc3ccc(C(=O)O)cc3)nc(=O)n1CC2 | -12 | 9 | -11 |
| 21 | Cn1c(=O)n(CCc2ccccc2)c(=O)c2c1nc1n2CCCN1Cc1ccccc1 | 7 | 4 | 4 |
| 22 | CCCn1c(=O)c2c(nc3n2CCCN3Cc2ccccc2)n(C)c1=O | -3 | -1 | -5 |
| 23 | CCOC(=O)N1CCN(C(=S)Nc2cc(S(=O)(=O)N3CCOCC3)ccc2Cl)CC1 | -7 | -2 | 8 |
| 24 | CCOC(=O)C1CCCN(C(=S)Nc2ccc(S(=O)(=O)N3CCOCC3)cc2)C1 (centres undefined) | -22 | -5 | -2 |
| 25 | Cc1cc(OCC(=O)OCC(=O)Nc2cc(S(=O)(=O)N3CCOCC3)ccc2Cl)ccc1Cl | -19 | 15 | 6 |
| 26 | COc1ccc(OCC(=O)OCC(=O)Nc2cc(S(=O)(=O)N3CCOCC3)ccc2Cl)cc1 | 5 | 9 | -4 |

| No. | ARNT-TACC3 inh | FGF22 binding | ERp5 inh |
| --- | --- | --- | --- |
| 13 | 15 | 43* | 5 |
| 14 | 3 | 0 | -6 |
| 15 | -3 | 0 | 2 |
| 16 | 5 | 0 | 2 |
| 17 | -5 | 43* | -1 |
| 18 | . | . | -4 |
| 19 | 64* | 0 | -4 |
| 20 | 46* | 0 | 0 |
| 21 | 11 | . | . |
| 22 | 49* | 0 | 3 |
| 23 | -6 | 45* | -6 |
| 24 | 0 | 43* | -2 |
| 25 | 4 | 0 | 5 |
| 26 | 14 | 43* | 0 |

Three compounds from above, arranged by number of heavy atoms, rising.
| No. | Molecule | Yeast UUG start | PDI inh | PglD inh |
| --- | --- | --- | --- | --- |
| 14 | CC1CCCC/C1=N\NC(=S)NCCc1ccccc1 (centres undefined) | . | 4 | . |
| 26 | COc1ccc(OCC(=O)OCC(=O)Nc2cc(S(=O)(=O)N3CCOCC3)ccc2Cl)cc1 | 5 | 9 | -4 |
| 15 | C[C@@H]1CN([C@H](C)CO)S(=O)(=O)c2ccc(C3=CCCCC3)cc2O[C@@H]1CN(C)C(=O)C1CCOCC1 | 13 | . | 3 |

| No. | ARNT-TACC3 inh | FGF22 binding | ERp5 inh |
| --- | --- | --- | --- |
| 14 | 3 | 0 | -6 |
| 26 | 14 | 43* | 0 |
| 15 | -3 | 0 | 2 |
